Laboratory results reported in patent publication US11845808B2, “Peptide inhibitors of interleukin-23 receptor and their use to treat inflammatory diseases” (Janssen Biotech, Inc., priority 2020, dated 2023).

Tests used:
[1] = Stability in rat plasma; type: in vitro ADME; conditions: SD rat plasma, 37° C., 20 μM
[2] = molecular target: T1, IL-23R (Homo sapiens, UniProt Q5VWK5); assay: DB cells IL23R pSTAT3 cell assay (pStat3 HTRF); type: cell-based; conditions: IL-23R-expressing DB cells, IL-23 0.5 nM, 30 minutes
T1 construct: examines the levels of pSTAT3 in IL-23R-expressing DB cells when stimulated with IL-23; host or cells: DB cells
T1 sequence (Q5VWK5 24-629): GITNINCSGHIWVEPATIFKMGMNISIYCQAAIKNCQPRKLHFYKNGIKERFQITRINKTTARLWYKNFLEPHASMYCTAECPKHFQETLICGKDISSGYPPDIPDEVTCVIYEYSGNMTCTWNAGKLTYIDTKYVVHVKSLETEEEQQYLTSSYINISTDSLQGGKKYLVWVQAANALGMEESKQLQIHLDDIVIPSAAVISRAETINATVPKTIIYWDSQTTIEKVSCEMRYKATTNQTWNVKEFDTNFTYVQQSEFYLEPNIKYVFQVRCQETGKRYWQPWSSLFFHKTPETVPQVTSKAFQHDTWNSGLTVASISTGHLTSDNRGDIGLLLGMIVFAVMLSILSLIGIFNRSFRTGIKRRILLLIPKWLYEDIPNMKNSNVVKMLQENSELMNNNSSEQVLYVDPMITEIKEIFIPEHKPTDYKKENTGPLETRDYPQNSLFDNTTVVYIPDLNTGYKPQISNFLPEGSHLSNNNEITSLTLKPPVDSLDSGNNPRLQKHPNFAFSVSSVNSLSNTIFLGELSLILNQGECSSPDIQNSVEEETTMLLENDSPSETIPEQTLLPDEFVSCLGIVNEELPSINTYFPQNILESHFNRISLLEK
Description: Human ELISA indicates the IL23-IL23R competitive binding assay described below, Rat ELISA indicates the rat IL-23R competitive binding ELISA assay described below, and pStat3HTRF indicates the DB cells IL-23R pSTAT3 cell assay described below. The peptides depicted in Table E1A and Table E1B are cyclized via a disulfide bridge formed between two Pen residues in these peptides. The peptides depicted in Table E2 are cyclized via a thioether bond between the indicated amino acid residues. Table E2 provides an illustrative structure depicting thioether cyclization, which is indicated in the table by the term “cyclo,” with the cyclic region bracketed immediately following the term “cyclo.” For certain peptides, the residue Abu is present where indicated, whereas in other embodiments, e.g., those related to the non-cyclized form, the Abu may be referred to as a hSer(Cl) or homoSer residue.
DB Cells IL23R pSTAT3 Cell Assay
Where not shown or it is marked as “0”, data was not yet determined.

[3] = Stability in human fecal homogenate; type: in vitro ADME; conditions: 20% human fecal homogenate, 37° C., 20 μM
[4] = Stability in cynomolgus monkey fecal homogenate; type: in vitro ADME; conditions: 20% cynomolgus monkey fecal homogenate, 37° C., 20 μM
[5] = Stability in simulated intestinal fluid (SIF); type: in vitro ADME; conditions: 100 fold dilution of standard SIF concentration, 37° C., 20 μM
In short: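 Peptides at 20 μM final were incubated at 37 °C in SIF (potassium phosphate with pancreatin, pH 6.8), and reactions were quenched with acetonitrile/1% formic acid at time points from 0 min to 24 h. Percent remaining relative to time 0 was determined by LC-MS/MS against an internal standard, and half-life came from a first-order decay fit.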

[6] = molecular target: IL-23 stimulated phosphorylated STAT3 in PBMCs (Homo sapiens, UniProt Q5VWK5); assay: PBMC pSTAT3 assay; type: cell-based; conditions: PBMCs from healthy donors, IL-23 5 ng/mL, 30 minutes
[7] = molecular target: IL-23 induced IFNγ in natural killer (NK) cells (Homo sapiens, UniProt Q5VWK5); assay: NK cell based assay (IL-23/IL-18 induced IFNγ); conditions: IL-23 at EC50 to EC75 and IL-18 10 ng/mL, IFNγ in supernatant after 20 to 24 hours
Description: Example 3: NK Cell Based Assay

| Substance | t½: Rat Plasma EDTA [1] [h] | IC50 [2] [pM] | t½: Human Feces anaerobic [3] [h] | t½: Monkey Feces anaerobic [4] [h] | SIF t½ [5] [h] | IC50 [6] [pM] | IC50 [7] [pM] |
| --- | --- | --- | --- | --- | --- | --- | --- |
| Ac-[Pen]-N-T-[W(7-Me)]-[Cit]-[Pen]-Phe[4-(2-aminoethoxy)]-[2-Nal]-[THP]-E-N-[3Pal]-[Sarc]-NH2 [Peptide 107] | >24.0 | 29 | 19.7 | 9 | 20.9 | – | – |
| Ac-[Pen]-N-T-[W(7-Me)]-[Lys(Ac)]-[Pen]-Phe[4-(2-aminoethoxy)]-[2-Nal]-[THP]-E-N-[3Quin]-[Sarc]-NH2 [Peptide 118] | >24.0 | 57 | – | – | >24.0 | – | – |
| Ac-[Pen]-N-T-[W(7-Me)]-[Lys(Ac)]-[Pen]-Phe[4-(2-aminoethoxy)]-[2-Nal]-[THP]-E-N-[4Pal]-[Sarc]-NH2 [Peptide 115] | >24.0 | 23 | – | – | >24.0 | – | – |
| Ac-[Pen]-N-T-[W(7-Me)]-[Lys(Ac)]-[Pen]-Phe[4-(2-aminoethoxy)]-[2-Nal]-[THP]-[Lys(Ac)]-N-[3Pal]-[Sarc]-NH2 [Peptide 141] | – | 889 | – | – | – | – | – |
| Ac-[Pen]-N-T-[W(7-Me)]-[Lys(Ac)]-[Pen]-Phe[4-(2-aminoethoxy)]-[3-Quin]-[THP]-E-N-[(D)Leu)]-[Sarc]-NH2 [Peptide 6] | 13.9 | – | >24.0 | >24.0 | >24.0 | 4400 | – |
| Ac-[Pen]-N-T-[W(7-Me)]-[Lys(Ac)]-[Pen]-Phe[4-(2-aminoethoxy)]-[W(6-Me)]-[a-MeLys]-[Lys(Ac)]-N-H-[Sarc]-NH2 [Peptide 36] | >24.0 | 1100 | >24.0 | 14.8 | >24.0 | – | – |
| Ac-[Pen]-N-T-[W(7-Ph)]-[Cit]-[Pen]-Phe[4-(2-aminoethoxy)]-[2-Nal]-[THP]-E-N-[3Pal]-[Sarc]-NH2 [Peptide 126] | >24.0 | 54 | – | – | >24.0 | – | – |
| Ac-[Pen]-N-T-[W(7-Ph)]-[Lys(Ac)]-[Pen]-Phe[4-(2-aminoethoxy)]-[2-Nal]-[THP]-E-N-[3Pal]-[bA]-NH2 [Peptide 116] | >24.0 | 29 | – | – | 22.5 | – | – |
| Ac-[Pen]-N-T-[W(7-Ph)]-[Lys(Ac)]-[Pen]-Phe[4-(2-aminoethoxy)]-[2-Nal]-[THP]-[Lys(Ac)]-N-[3Pal]-[Sarc]-NH2 [Peptide 136] | – | – | – | – | – | 11 | – |
| Ac-[Pen]-N-T-[W(7-Ph)]-[Lys(Ac)]-[Pen]-Phe[4-(2-aminoethoxy)]-[2-Nal]-[a-MeLys]-[Lys(Ac)]-N-[3Pal]-[bA]-NH2 [Peptide 130] | >24.0 | 66 | – | – | 0.2 | – | – |
| Ac-[Pen]-N-T-[W(7-Ph)]-[Lys(Ac)]-[Pen]-Phe[4-(2-aminoethoxy)]-[3Quin]-[THP]-E-N-[(D)Lys]-[Sarc]-NH2 [Peptide 11] | 12.5 | – | >24.0 | >24.0 | >24.0 | 5400 | 1730 |
| Ac-[Pen]-N-T-[W(7-Ph)]-[Lys(Ac)]-[Pen]-Phe[4-(2-aminoethoxy)]-[3Quin]-[a-MeLys]-[Lys(Ac)]-N-[(D)Lys]-[Sarc]-NH2 [Peptide 12] | >24.0 | – | >24.0 | >24.0 | >24.0 | 10000 | 1910 |
| Ac-[Pen]-[Gly(Allyl)]-D-[W(7-Me)]-[Lys(Ac)]-[Pen]-[Tyr(O-Allyl)]-[2-Nal]-[THP]-[Lys(Ac)]-N-[3Pal]-[Sarc]-NH2 [Peptide 288] | – | 62 | – | – | – | – | – |
| Ac-[Pen]-[Gly(Allyl)]-T-(W(4-F)]-[Lys(Ac)]-[Pen]-[Tyr(O-Allyl)]-[2-Nal]-[THP]-[Lys(Ac)]-N-[3Pal]-[Sarc]-NH2 [Peptide 289] | – | 59 | – | – | – | – | – |
